Here are results for 19 compounds from paper PMC6374920, “Synthesis and biological evaluation of 3-arylcoumarins as potential anti-Alzheimer's disease agents” (Journal of Enzyme Inhibition and Medicinal Chemistry, 2019).

Chains of the proteins cited; added tags and fusions are not shown. Residues count along the entry.
UniProt P19643, whole entry: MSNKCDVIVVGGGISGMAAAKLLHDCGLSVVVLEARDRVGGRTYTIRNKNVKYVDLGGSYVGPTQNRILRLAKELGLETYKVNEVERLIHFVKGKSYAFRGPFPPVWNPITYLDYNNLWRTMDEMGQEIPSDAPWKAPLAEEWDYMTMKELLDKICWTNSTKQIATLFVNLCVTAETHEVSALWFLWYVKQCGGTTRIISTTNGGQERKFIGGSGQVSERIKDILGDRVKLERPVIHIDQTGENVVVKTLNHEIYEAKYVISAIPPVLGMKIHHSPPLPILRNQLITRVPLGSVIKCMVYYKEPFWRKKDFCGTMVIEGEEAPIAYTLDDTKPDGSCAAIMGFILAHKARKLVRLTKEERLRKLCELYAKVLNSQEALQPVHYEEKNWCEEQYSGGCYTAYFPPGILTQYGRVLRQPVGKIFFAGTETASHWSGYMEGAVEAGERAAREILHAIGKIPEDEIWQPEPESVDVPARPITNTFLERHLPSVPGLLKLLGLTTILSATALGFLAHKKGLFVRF
UniProt O42275, 24-633 limits assumed: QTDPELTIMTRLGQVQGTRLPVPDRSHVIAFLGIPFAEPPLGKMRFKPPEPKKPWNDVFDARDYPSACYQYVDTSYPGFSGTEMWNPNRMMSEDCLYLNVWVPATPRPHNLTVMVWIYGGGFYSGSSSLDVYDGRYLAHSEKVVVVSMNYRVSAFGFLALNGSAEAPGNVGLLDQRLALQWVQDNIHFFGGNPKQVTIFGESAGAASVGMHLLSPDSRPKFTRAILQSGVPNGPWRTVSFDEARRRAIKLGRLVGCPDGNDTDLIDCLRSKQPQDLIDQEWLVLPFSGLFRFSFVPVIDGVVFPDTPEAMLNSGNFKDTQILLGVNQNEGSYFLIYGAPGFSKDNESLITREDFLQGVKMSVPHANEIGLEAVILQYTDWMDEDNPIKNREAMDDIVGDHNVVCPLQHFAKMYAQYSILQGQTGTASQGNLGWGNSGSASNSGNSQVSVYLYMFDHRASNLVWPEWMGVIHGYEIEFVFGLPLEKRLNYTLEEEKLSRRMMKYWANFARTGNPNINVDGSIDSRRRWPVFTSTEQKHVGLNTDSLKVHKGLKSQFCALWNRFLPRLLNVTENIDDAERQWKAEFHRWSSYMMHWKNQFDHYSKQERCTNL
UniProt P81908, whole entry: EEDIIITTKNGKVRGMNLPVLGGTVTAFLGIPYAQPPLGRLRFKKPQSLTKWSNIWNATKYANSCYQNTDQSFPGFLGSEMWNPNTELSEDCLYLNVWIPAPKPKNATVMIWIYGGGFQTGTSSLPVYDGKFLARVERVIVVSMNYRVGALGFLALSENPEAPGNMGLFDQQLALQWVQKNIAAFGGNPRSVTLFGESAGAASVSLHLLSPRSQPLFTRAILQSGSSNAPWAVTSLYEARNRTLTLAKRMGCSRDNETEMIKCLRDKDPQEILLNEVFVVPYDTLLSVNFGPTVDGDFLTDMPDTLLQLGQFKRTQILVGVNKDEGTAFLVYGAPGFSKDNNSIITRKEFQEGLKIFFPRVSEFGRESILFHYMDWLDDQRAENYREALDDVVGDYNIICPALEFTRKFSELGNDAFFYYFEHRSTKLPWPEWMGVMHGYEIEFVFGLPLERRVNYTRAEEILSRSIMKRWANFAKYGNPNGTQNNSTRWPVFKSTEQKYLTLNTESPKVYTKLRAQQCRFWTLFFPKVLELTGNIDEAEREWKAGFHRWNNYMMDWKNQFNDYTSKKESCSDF

For experiment [1], the target named is MAO-B (Rattus norvegicus, UniProt P19643). The experiment is described as follows: In vitro monoamine oxidase inhibitory activity (Holt method, crude enzyme from rat liver). The format is biochemical. The following applies: read-out: IC50 value MAO-B inhibitory activity; crude enzyme from Wistar rat liver; mean ± SD (n = 3).
Experiment [2] in a line: In vitro antioxidant activity, FRAP assay. The conditions noted are these: for FRAP value Antioxidant activity: FeSO4 as standard, mean ± SD (n = 3); for FRAP value relative to vitamin C: folds of the value of vitamin C. How it is done:
The total antioxidant capacity of the 3-arylcoumarin compounds was measured by the FRAP (the Ferric Reducing Ability of Plasma) assay of Benzie et al.[29] with slight modifications. This method is based on the reduction of colourless Fe(III)-TPTZ(2,4,6-Tris(2-pyridyl)-s-triazine) complex to coloured Fe(II)-TPTZ complex by the compounds. FRAP working solution (300 mmol/L acetate buffer, 10 mmol/L TPTZ, 20 mmol/LFeCl3) was ready to use. A hundred microlitres of the sample solution was added to 3 ml of FRAP reagent and then incubated at 37 °C for 15 min. The experiments were repeated for three times. The absorbance was measured at 593 nm to clarify the changes. The standard curve was drawn with FeSO4 as standard material, and the regression equation was obtained. With 1.0 mmol/L FeSO4 as standard, the antioxidant activity of the sample is expressed in millimoles of […] required to achieve the same absorbance.

For experiment [3], the target named is AChE from electric eel (Electrophorus electricus, UniProt O42275).
Experiment [4] concerns the target BuChE from horse serum (Equus caballus, UniProt P81908).
Experiment [5] deals with zebrafish juveniles. The experiment is described as follows: Zebrafish behavioural experiment (AlCl3-induced Alzheimer's disease model). The following applies: AlCl3-induced zebrafish AD model; 10, 50, 100, 1000 µg/ml.

On to `O=c1oc2cc(O)ccc2cc1-c1ccc(F)cc1`, for which the results for the IC50 in experiment [1], in experiment [3] and in experiment [4] were above 700 µM, 74.3 µM and 29.3 µM, respectively. Besides, in experiment [2], the “FRAP value Antioxidant activity” value was found to be 0.38 ± 0.07 mmol/g.

Consider `COc1ccc(-c2cc3ccc(O)c(O)c3oc2=O)cc1OC`, for which the 50% inhibitory concentration (IC50) was 63.4 µM in experiment [1], 8.45 µM in experiment [3] and 24.8 µM in experiment [4]. For the same compound, the “FRAP value relative to vitamin C” value in experiment [2] is 3–11 folds.

`COc1ccc2oc(=O)c(-c3ccc(O)cc3)cc2c1`: the IC50 is above 700 µM in experiment [1] and 10.6 µM in experiment [4]. In experiment [2], the “FRAP value Antioxidant activity” value was 1.47 ± 0.04 mmol/g.

For the compound `Cc1ccc(-c2cc3ccc(O)c(O)c3oc2=O)cc1`, the IC50 in experiment [1] is above 700 µM; in experiment [3], 12.6 µM; in experiment [4], 13.2 µM. The “FRAP value relative to vitamin C” value in experiment [2] is recorded as 3–11 folds.

For `O=c1oc2c(O)cccc2cc1-c1ccc(O)cc1`, the 50% inhibitory concentration (IC50) in experiment [1] is above 700 µM; in experiment [3], 68.2 µM; in experiment [4], 21.2 µM. Also, in experiment [2], the “FRAP value Antioxidant activity” value is 0.66 ± 0.08 mmol/g.

Turning to `Cc1ccc(-c2cc3ccc(O)cc3oc2=O)cc1`, the results for the IC50 in experiment [1], in experiment [3] and in experiment [4] were above 700 µM, 82.8 µM and 21.8 µM, respectively. The “FRAP value Antioxidant activity” value in experiment [2] is recorded as 0.35 ± 0.05 mmol/g.

As to `O=c1oc2c(O)c(O)ccc2cc1-c1ccc(F)cc1`, the IC50 turned out to be 232 µM in experiment [1], 27.1 µM in experiment [3] and 25.8 µM in experiment [4]. The “FRAP value relative to vitamin C” value in experiment [2] is 3–11 folds.

For the compound `O=c1oc2ccc(O)cc2cc1-c1ccc(O)cc1`, the results for the IC50 in experiment [1], in experiment [3] and in experiment [4] were above 700 µM, 40.4 µM and 75.6 µM, respectively. For the same compound, the “FRAP value Antioxidant activity” value in experiment [2] turned out to be 0.41 ± 0.08 mmol/g.

`O=c1oc2c(O)c(O)ccc2cc1-c1ccc(O)c(O)c1`: the “FRAP value relative to vitamin C” value in experiment [2] is listed as 3–11 folds.

As to `O=c1oc2c(O)c(O)ccc2cc1-c1ccc(Br)cc1`, the IC50 is above 700 µM in experiment [1], 8.75 µM in experiment [3] and 20.2 µM in experiment [4]. Further, in experiment [2], the “FRAP value relative to vitamin C” value was 3–11 folds.

As for `O=c1oc2ccccc2cc1-c1ccc(Br)cc1`, the IC50 in experiment [1] is above 700 µM; in experiment [4], above 100 µM. For the same compound, the “FRAP value Antioxidant activity” value in experiment [2] worked out at 0.42 ± 0.06 mmol/g. Also, in experiment [5], the “effect in zebrafish behavioural experiments (total distance of movement)” value was “did not show significant effects”.

`O=c1oc2c(O)c(O)ccc2cc1-c1ccc(O)cc1`: the IC50 was 65.8 µM in experiment [1], 13.1 µM in experiment [3] and 18.9 µM in experiment [4]. Further, in experiment [2], the “FRAP value relative to vitamin C” value is 3–11 folds.

For `O=c1oc2cc(O)ccc2cc1-c1ccc(O)c(O)c1`, the IC50 in experiment [1] was 330 µM; in experiment [3], 30.9 µM; in experiment [4], 70.9 µM. The “FRAP value Antioxidant activity” value in experiment [2] came out at 8.41 ± 0.11 mmol/g.

Turning to `Cc1ccc(C)c(-c2cc3ccc(O)c(O)c3oc2=O)c1`, the values for the IC50 in experiment [1], in experiment [3] and in experiment [4] were above 700 µM, 13.7 µM and 9.92 µM, respectively. Also, the “FRAP value relative to vitamin C” value in experiment [2] is recorded as 3–11 folds.

Regarding `COc1ccc(-c2cc3cccc(O)c3oc2=O)cc1`, the IC50 turned out to be 503 µM in experiment [1] and 46.4 µM in experiment [4]. The “FRAP value Antioxidant activity” value in experiment [2] was 2.98 ± 0.22 mmol/g.

For `O=c1oc2c(O)c(O)ccc2cc1-c1ccccc1`, the values for the IC50 in experiment [1], in experiment [3] and in experiment [4] were 73.5 µM, 18 µM and 16.1 µM, respectively. In addition, in experiment [2], the “FRAP value relative to vitamin C” value is 3–11 folds.

As to `COc1ccc(-c2cc3ccc(O)c(O)c3oc2=O)cc1`, the IC50 turned out to be 562 µM in experiment [1], 13.3 µM in experiment [3] and 26.5 µM in experiment [4]. In addition, the “FRAP value relative to vitamin C” value in experiment [2] was 3–11 folds.

With `O=c1oc2c(O)cccc2cc1-c1ccccc1`, the 50% inhibitory concentration (IC50) in experiment [1] is above 700 µM. For the same compound, in experiment [2], the “FRAP value Antioxidant activity” value was found to be 0.16 ± 0.05 mmol/g. Also, the “effect in zebrafish behavioural experiments (total distance of movement)” value in experiment [5] is reported as “did not show significant effects”.

`O=c1oc2cc(O)cc(O)c2cc1-c1ccc(O)cc1`: the IC50 in experiment [1] was 205 µM; in experiment [3] it was 16.4 µM; in experiment [4], 2.76 µM. The “FRAP value Antioxidant activity” value in experiment [2] is reported as 2.29 ± 0.02 mmol/g.

Usually IC50 stands for the concentration that inhibits the measured activity by half.
